# Measured affinities in a library of Ab-91 heavy chain variants

All variants were tested on one target, the spike HR2 peptide PDVDLGDISGINAS (SARS-CoV-2).

Each scFv is VL, a (GGGGS)3 linker, VH, as in the parent Ab-91, and differs from it in the CDRs of the heavy chain only.
VL: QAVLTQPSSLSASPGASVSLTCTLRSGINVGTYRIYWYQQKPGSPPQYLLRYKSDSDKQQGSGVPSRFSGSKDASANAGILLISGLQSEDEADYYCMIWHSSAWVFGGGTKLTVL
VH: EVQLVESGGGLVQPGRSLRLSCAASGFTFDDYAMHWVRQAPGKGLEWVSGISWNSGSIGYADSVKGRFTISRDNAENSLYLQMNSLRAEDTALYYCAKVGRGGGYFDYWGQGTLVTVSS

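The parent was found by panning a naive human phage display library on the peptide. AAYL51 was designed without a model: most single CDR substitutions and a random sample of double and triple ones. The assay is AlphaSeq: two haploid yeast populations carry antibody and antigen on their surface. Binding brings cells together so that they mate, and sequencing counts the barcode pairs among the diploids. The ratio of observed to expected reads was calibrated, replicate by replicate, on BCL2-family standards whose Kd was known from biolayer interferometry. There are three technical replicates.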

Changes read parent residue, position, new residue, counted from the first residue of the VH shown.
Every variant below is changed at Y108 of the VH (sequential numbering).
Values are apparent Kd, the geometric mean of the replicates that gave a signal; lower means stronger binding.
"nd" marks a missing value. The strain was present, yet no cells mated with the target were sequenced in any replicate, which points to weak or no binding.
Order: sorted from the lowest average up, undetected variants last.

* T28M S63Y Y108G: 20 nM (3 of 3 replicates; controls 1 of 9)
* T28D Y60F Y108S: 28 nM (3 of 3 replicates; controls 8 of 9)
* W53L I58V Y108D: 31 nM (3 of 3 replicates; controls 3 of 9)
* A33M A61L Y108M: 85 nM (3 of 3 replicates; controls 0 of 9)
* G26F S63E Y108I: 120 nM (3 of 3 replicates; controls 2 of 9)
* D62M K65R Y108T: 130 nM (3 of 3 replicates; controls 0 of 9)
* G26Q R101Q Y108A: 190 nM (3 of 3 replicates; controls 0 of 9)
* G56P S57V Y108L: 490 nM (3 of 3 replicates; controls 4 of 9)
* S55M Y108T: 1.0 µM (3 of 3 replicates; controls 1 of 9)
* S55T K65Y Y108V: 1.2 µM (3 of 3 replicates; controls 2 of 9)
* F27S K65A Y108R: 5.4 µM (2 of 3 replicates; controls 0 of 9)
* D30V Y105A Y108E: 17 µM (3 of 3 replicates; controls 8 of 9)
* D31A A33C Y108Q: 18 µM (1 of 3 replicates; controls 3 of 9)
* G26R N54S Y108Q: 21 µM (1 of 3 replicates; controls 0 of 9)
* Y60M D62E Y108C: 22 µM (1 of 3 replicates; controls 2 of 9)
* G56Y D107L Y108A: 29 µM (2 of 3 replicates; controls 3 of 9)
* T28P G59L Y108N: 41 µM (1 of 3 replicates; controls 4 of 9)
* F29S H35T Y108N: 43 µM (1 of 3 replicates; controls 2 of 9)
* M34L I51Q Y108D: 44 µM (1 of 3 replicates; controls 5 of 9)
* F29G Y105E Y108I: 46 µM (1 of 3 replicates; controls 1 of 9)
* G56Y K65F Y108E: 51 µM (1 of 3 replicates; controls 2 of 9)
* S52Y N54H Y108T: 72 µM (1 of 3 replicates; controls 4 of 9)
* S57K G104S Y108P: 95 µM (3 of 3 replicates; controls 5 of 9)
* F29W G102A Y108T: 130 µM (2 of 3 replicates; controls 4 of 9)
* D62I G104S Y108E: 130 µM (3 of 3 replicates; controls 3 of 9)
* M34C I58P Y108N: 190 µM (3 of 3 replicates; controls 3 of 9)
* M34S G56M Y108S: 350 µM (2 of 3 replicates; controls 4 of 9)
* A33M G100H Y108I: 1.6 mM (1 of 3 replicates; controls 1 of 9)
* S63Q G103I Y108T: nd (0 of 3 replicates; controls 2 of 9)
* H35Y K65A Y108S: nd (0 of 3 replicates; controls 4 of 9)
* I51S Y108C: nd (0 of 3 replicates; controls 0 of 9)
* A33Y Y108Q: nd (0 of 3 replicates; controls 1 of 9)
* G50Y G103R Y108G: nd (0 of 3 replicates; controls 2 of 9)
* S55I S57I Y108Q: nd (0 of 3 replicates; controls 0 of 9)
* D31L M34H Y108G: nd (0 of 3 replicates; controls 1 of 9)
* Y32P A33E Y108H: nd (0 of 3 replicates; controls 1 of 9)
* T28P A33T Y108P: nd (0 of 3 replicates; controls 1 of 9)
* W53K S63F Y108S: nd (0 of 3 replicates; controls 0 of 9)
* G50M Y108S: nd (0 of 3 replicates; controls 0 of 9)
* W53S Y60C Y108G: nd (0 of 3 replicates; controls 0 of 9)
* Y32R W53N Y108H: nd (0 of 3 replicates; controls 0 of 9)

The 5 strongest on average among those seen in every replicate, once more:

- T28M S63Y Y108G -> 20 nM (3 of 3 replicates; controls 1 of 9)
- T28D Y60F Y108S -> 28 nM (3 of 3 replicates; controls 8 of 9)
- W53L I58V Y108D -> 31 nM (3 of 3 replicates; controls 3 of 9)
- A33M A61L Y108M -> 85 nM (3 of 3 replicates; controls 0 of 9)
- G26F S63E Y108I -> 120 nM (3 of 3 replicates; controls 2 of 9)

Three control strains display no target. For library AAYL51, 21% of the pairings with them gave a signal, with a median of 34 µM and one signal in twenty below 1.8 µM, so weak values seen in few replicates may be background. For each scFv, signals with the empty controls are counted beside the result.

Values reported by Engelhart et al. 2022, doi:10.1038/s41597-022-01779-4 (FLAb copy).